Apparent affinities of Ab-14 variants for a coronavirus HR2 peptide

From the AlphaSeq antibody data of Engelhart et al. 2022 (doi:10.1038/s41597-022-01779-4), copy in the FLAb collection.

The target is the same throughout: PDVDLGDISGINAS, from the HR2 region of SARS-CoV-2 spike.

The variants keep the heavy chain, the linker and the frameworks of Ab-14 (scFv order VH, a (GGGGS)3 linker, VL).
VH: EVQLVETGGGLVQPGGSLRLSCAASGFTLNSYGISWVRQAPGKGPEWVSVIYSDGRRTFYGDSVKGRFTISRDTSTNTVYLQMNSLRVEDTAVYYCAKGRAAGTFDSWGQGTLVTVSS
VL: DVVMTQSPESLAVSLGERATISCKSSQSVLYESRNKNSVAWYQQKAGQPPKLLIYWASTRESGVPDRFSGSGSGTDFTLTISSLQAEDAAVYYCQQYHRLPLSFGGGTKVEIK

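The parent was found by panning a naive human phage display library on the peptide. The library (AAYL50) carries one to three amino acid substitutions per variant, with no insertions or deletions. Affinity was read by AlphaSeq, a pooled yeast mating assay with surface-displayed partners. Pairs that bind mate more often; barcode pairs of the diploids are counted by sequencing. Scores were corrected for input abundance and mapped to Kd with protein pairs of known affinity run in the same pool. Each pool was mated in three replicate cultures.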

Each variant is given by its three light chain CDRs, as the data file delimits them; those of the parent are KSSQSVLYESRNKNSVA, WASTRES, QQYHRLPLS.
The read-out is the apparent dissociation constant on a log10 scale (nM): the lower, the stronger.
A mean of the replicates is given; it leaves out those without a signal.
Where no diploid with the target was found in that replicate, the entry reads "nd": below detection, most likely a poor binder, though not proof of it.
Nonspecific signal, from three strains lacking the peptide, appeared in 18% of pairings of library AAYL50, centred on 4.19 (5% of these signals below 2.99); values are not corrected for it. For each scFv, signals with the empty controls are counted beside the result, with their mean in brackets.
In this assay the parent's reference entry averaged 0.65; its copy inside this library read 1.68.

CDR-L1,CDR-L2,CDR-L3,"replicates, log10 nM","log10 Kd (nM), mean",control signals
KSSQSVLYPSRNKSAVA,WASTRES,QQYHRLPLS,1.56 1.68 1.72,1.65,3/9 (3.63)
KSSQSLLYEHRNWNSVA,WASTRES,QQYHRLPLS,2.90 4.54 3.90,3.78,0/9
RSSQSVVYESRNKNSVL,WASTRES,QQYHRLPLS,nd 3.83 nd,3.83,0/9
LSSQSVFYESRDKNSVA,WASTRES,QQYHRLPLS,1.83 1.49 1.64,1.65,6/9 (3.95)
ASSQSVLYENRNKNSVA,WASTRES,QQYHRYPLS,2.13 2.00 1.89,2.01,0/9
KSSQSVLYSHRNKNSVA,WASTRES,PQYHRLPLS,nd nd nd,nd,0/9
KSSQSVLYESRNKNSVP,WASTRES,QQYHRLPHF,nd nd nd,nd,1/9 (3.88)
KSSQSVLYESRNKNSVA,WWSTRES,QPYHRYPLS,nd nd nd,nd,2/9 (3.90)
KSSQSVLYESRNCSSVA,WASTRIS,QQYHRLPLS,0.97 1.03 1.15,1.05,3/9 (4.22)
KSSQSVLYESRNKNCVA,PASTRES,QQYHRYPLS,nd nd nd,nd,1/9 (5.00)
MSSQSVLYESRNKNSVA,WASTRES,QVYHRLSLS,3.12 4.02 3.06,3.40,0/9
ASSQSVLYESTNKNSVA,WASTRES,QQMHRLPLS,2.72 2.37 3.15,2.75,3/9 (4.69)
KSSQSVLYESRNKNVVA,WANTRES,WQYHRLPLS,nd nd nd,nd,2/9 (3.41)
KSSQFVLYESGNKNSVA,WASTRES,QQYHRPPLS,nd nd 2.12,2.12,0/9
KSSQSIGYESRNKNSVA,WASTRES,QQYHRLPLS,0.76 0.93 0.88,0.85,2/9 (4.45)
KSSQSVLYETRNKNSVA,WASTRES,HQYHYLPLS,nd 4.18 nd,4.18,1/9 (3.35)
KSSQSVKYESPNKNGVA,WASTRES,QQYHRLPLS,2.54 2.38 3.15,2.69,4/9 (4.52)
KSSQSVLYESVNKNSVA,WASTRES,QQYLRLPLS,2.04 1.89 1.99,1.97,2/9 (4.05)
KSSQSVLYESRNKSSVA,WASTRES,QQYHRLPLS,1.28 1.38 1.59,1.42,2/9 (4.21)
KSSQSVLYESRNKNSVA,WADTRES,LQYHHLPLS,nd nd nd,nd,0/9
KSSQSVLYHSRNKNSVA,VASTRES,QQYHRKPLS,3.65 3.59 nd,3.62,1/9 (3.21)
KSSQSVLYESRNKNCVA,WASHRES,QVYHRLPLS,5.18 nd 5.21,5.19,3/9 (3.76)
KSSQSVHYESRNKNSVA,WASTVES,QQYHFLPLS,nd nd nd,nd,0/9
KSSKSVLYESKNKNSVA,WASTRCS,QQYHRLPLS,0.78 1.05 0.92,0.92,3/9 (4.28)
KSPQSVLYESRNKWSVA,WASTRES,QQYHRLPRS,2.79 2.70 nd,2.75,0/9
KSSQSTLYESRNKNSVA,WASTRES,QQYHRLPLS,0.65 0.99 0.81,0.82,2/9 (3.56)
KSSQSVLYESRNKNSVA,DASTRES,QQYHRCPLS,3.55 4.11 4.62,4.09,3/9 (3.92)
KSSQSLLYESRNKNSVA,WAEARES,QQYHRLPLS,1.23 1.03 1.10,1.12,1/9 (2.99)
KSSQSVLYESRNKNSIY,WASTRES,QQYHRLPTS,nd nd nd,nd,4/9 (3.51)
ASSLSVLYESRNKTSVA,WASTRES,QQYHRLPLS,nd nd nd,nd,0/9
KSPQSVLYESRNKNSVA,WASRTES,QQYHRLPLS,nd nd 4.59,4.59,1/9 (3.44)
KSSQSVLYESRNKNSVY,WVSRRES,QQYHRLPLS,5.32 4.30 nd,4.81,3/9 (4.90)
KSSQSVLLESRRKNSVA,WASTRES,QQYHRLFLS,1.07 1.23 1.19,1.16,6/9 (5.35)
KSSQSVLYSSRNKNSVA,WASTRES,QQDHRLKLS,1.24 1.11 1.27,1.20,0/9
KLSQSVLRESRNKNSVA,WASTRES,QQYHELPLS,-0.03 0.33 0.10,0.13,7/9 (5.15)
KSWQSVLYESRIKNSVA,WASTRHS,QQYHRLPLS,nd nd 2.15,2.15,0/9
KSSQSVLYESRYKNSVQ,WNSTRES,QQYHRLPLS,nd 4.71 nd,4.71,1/9 (4.07)
KWSFSSLYESRNKNSVA,WASTRES,QQYHRLPLS,0.22 0.46 0.54,0.41,1/9 (2.96)

The 3 strongest on average among those seen in every replicate, once more:

{"CDR-L1": "KLSQSVLRESRNKNSVA", "CDR-L2": "WASTRES", "CDR-L3": "QQYHELPLS", "replicates, log10 nM": "-0.03 0.33 0.10", "log10 Kd (nM), mean": "0.13", "control signals": "7/9 (5.15)"}
{"CDR-L1": "KWSFSSLYESRNKNSVA", "CDR-L2": "WASTRES", "CDR-L3": "QQYHRLPLS", "replicates, log10 nM": "0.22 0.46 0.54", "log10 Kd (nM), mean": "0.41", "control signals": "1/9 (2.96)"}
{"CDR-L1": "KSSQSTLYESRNKNSVA", "CDR-L2": "WASTRES", "CDR-L3": "QQYHRLPLS", "replicates, log10 nM": "0.65 0.99 0.81", "log10 Kd (nM), mean": "0.82", "control signals": "2/9 (3.56)"}